Assay results as given in patent publication US20250387388A1, “COMPOUND AS TRK INHIBITOR AND/OR RET INHIBITOR AND USE THEREOF” (Medinno Pharmaceutical Technology (Zhuhai) Co., Ltd., priority 2022, published 2025).

System: acne model in rabbits
Test: Acne model in rabbits (coal tar + Propionibacterium acnes)
Design: species or system New Zealand white rabbits
Conditions: rabbit, in vivo

## CCC[C@@H]1C[C@@H](C(=O)N[C@@H]([C@H]2O[C@H](SC)[C@H](O)[C@@H](O)[C@H]2O)[C@H](C)Cl)N(C)C1 [clindamycin, reference compound]
  Ear tissue HE staining: still a significant amount of keratin hyperplasia
